Patent US20250049928A1, “ANESTHETIC PRODRUGS AND DERIVATIVES THEREOF FOR PROLONGED SENSORY SELECTIVE NERVE BLOCKAGE” (The Board of Trustees of The University of Alabama, priority 2023, published 2025)

What was measured:
[1] = tested on: rats; details: rat, in vivo
[2] = tested on: Esterase (from porcine liver); details: pig
[3] = tested on: sciatic nerve; details: rat, not told
[4] = tested on: sciatic nerves and surrounding tissues; details: rat, in vivo

Q: “glycine-capsaicin prodrug [Gly-CAP prodrug]” was tested. Which “rats exhibiting irreversible nerve blockade” value [1] did it give?
A: The value was “one rat”.

Q: And the “rats that developed contralateral nociceptive axon block” value [1]?
A: The value was 2 rats.

Q: And the “rats that experienced a seizure” value [1]?
A: The value was 1 in 4 rats.

Q: What about the Half-lives [2] of the same substance?
A: Its Half-lives is less than 10 min.

Q: With “poly (ethylene glycol)750-fluorescein [PEG750-FL]” as the substance, how does the “fluorescence distribution / permeation into the sciatic nerve” value [3] read?
A: The value was “weak fluorescent signals”.

Q: “glucuronic acid-linked bupivacaine [GluA-Bup]” was tested. Which “appearance of surrounding tissues” value [4] did it give?
A: The value was “no signs of edema or discoloration”.

Q: And the “microscopic examination for myotoxicity or inflammation” value [4]?
A: Its value is “did not reveal any significant myotoxicity or inflammatory responses”.
